US9303025B2, “Apoptosis-inducing agents for the treatment of cancer and immune and autoimmune diseases” (AbbVie Inc., priority 2008, dated 2016)

Amino acid sequences for entries named in this document (tags omitted).
UniProt P10415, whole entry: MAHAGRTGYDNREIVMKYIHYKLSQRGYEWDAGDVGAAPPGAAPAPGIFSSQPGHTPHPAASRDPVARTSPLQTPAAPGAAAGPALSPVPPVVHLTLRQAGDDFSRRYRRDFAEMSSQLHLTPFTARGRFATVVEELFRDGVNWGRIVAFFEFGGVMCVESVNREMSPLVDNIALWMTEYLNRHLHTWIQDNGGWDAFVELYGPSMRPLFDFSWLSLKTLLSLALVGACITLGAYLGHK

Target: GST-Bcl-2 (Homo sapiens (Human), UniProt P10415)
Test: Time Resolved-Fluorescence Resonance Energy Transfer (TR-FRET) Bcl-2 binding assay
Conditions: GST-Bcl-2 1 nM, F-Bak peptide probe 100 nM, Tb-anti-GST antibody 1 nM; 3 hours at room temperature; Ki by Wang's equation

How did the Ki turn out when “2-(3-chlorophenoxy)-4-(4-{[2-(4-chlorophenyl)-4,4-dimethylcyclohex-1-en-1-yl]methyl}piperazin-1-yl)-N-{[4-{1-[2-(2-methoxyethoxyl)ethyl]piperidin-4-yl}amino)-3-nitrophenyl]sulfonyl}benzamide [Example 170]” was run?
Its Ki is 0.036 nM.
